Results on two compounds are retold here after paper PMC3831620 (Naunyn-Schmiedeberg's archives of pharmacology, 2012).

Molecules are shown by their SMILES.

Data set [1] concerns the target T1, A2B receptor (Homo sapiens, UniProt P29275).
T1 sequence (P29275 1-332): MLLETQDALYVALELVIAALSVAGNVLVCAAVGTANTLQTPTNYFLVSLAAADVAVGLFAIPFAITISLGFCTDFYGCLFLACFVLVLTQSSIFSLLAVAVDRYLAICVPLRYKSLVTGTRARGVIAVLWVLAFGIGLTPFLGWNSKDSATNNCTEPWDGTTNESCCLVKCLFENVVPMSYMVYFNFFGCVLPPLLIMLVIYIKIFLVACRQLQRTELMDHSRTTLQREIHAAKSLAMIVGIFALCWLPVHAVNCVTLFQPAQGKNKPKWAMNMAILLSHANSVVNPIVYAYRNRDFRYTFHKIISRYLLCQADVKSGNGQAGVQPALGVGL
Kind of data set: A2B receptor-mediated adenylyl cyclase activity, CHO membranes. Type of data set: biochemical.

For data set [2] the following is noted: mice, autoradiography, tritiated compounds; ref Lindemalm et al. 1999; cited from earlier work.

As a reminder, the EC50 is the concentration giving half of the maximal effect. Low values mean a more potent agent, high ones a less potent agent. As for `Nc1nc(Cl)nc2c1ncn2[C@H]1C[C@H](O)[C@@H](CO)O1` [cladribine, 2-chloro-2′-deoxyadenosine], the EC50 in data set [1] is > 100 µM.

On to `Nc1nc(F)nc2c1ncn2[C@@H]1O[C@H](CO)[C@@H](O)[C@@H]1O` [fludarabine, 2-fluoroadenine-9-β-D-arabinofuranoside], for which the EC50 in data set [1] was > 100 µM. In addition, the “uptake into the brain relative to cladribine and clofarabine” value in data set [2] was ~ 2.5 times.
